From US11143649B2 (dated 2021) come the findings set out here.

The term Kd denotes the constant that tells how readily two partners part at equilibrium. Read a low Kd as a tighter complex.

In the test the target is IL-2 Antibody. As to the kind of experiment: BSI free-solution binding assay. The following applies: receptor IL-2 Antibody.

“Interleukin-2: ligand of IL-2 Antibody; antibody-antigen pair of the training set” registered a Kd of 0.0259 nM.
